Ab-91 heavy chain CDR variants: yeast mating affinities

Reference: Engelhart et al. 2022, doi:10.1038/s41597-022-01779-4. File: FLAb, binding data.

Binding partner: SARS-CoV-2 spike HR2 peptide, sequence PDVDLGDISGINAS.

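The starting antibody came from a phage panning campaign against this peptide. Variants in AAYL51 differ from the parent at up to three CDR positions; double and triple changes were sampled at random. In AlphaSeq, yeast of one mating type display the scFv and yeast of the other type display the target. After mating in shaken culture at 30 °C for 16 h, diploids were selected and their barcode pairs sequenced. The ratio of observed to expected reads was calibrated, replicate by replicate, on BCL2-family standards whose Kd was known from biolayer interferometry. There are three technical replicates.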

The variants keep the light chain, the linker and the frameworks of Ab-91 (scFv order VL, a 15-residue (Gly4Ser)3 linker, VH).
VL: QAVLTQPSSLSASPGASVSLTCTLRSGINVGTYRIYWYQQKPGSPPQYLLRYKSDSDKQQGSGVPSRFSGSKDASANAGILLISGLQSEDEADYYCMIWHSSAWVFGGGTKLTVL
VH: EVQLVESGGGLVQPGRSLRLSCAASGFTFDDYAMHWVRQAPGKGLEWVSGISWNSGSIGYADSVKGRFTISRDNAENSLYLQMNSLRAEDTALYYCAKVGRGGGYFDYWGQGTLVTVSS

Variants are written as CDR1, CDR2 and CDR3 of the heavy chain (limits as in the source). Parent: GFTFDDYAMH, GISWNSGSIGYADSVK, VGRGGGYFDY. The read-out is the apparent dissociation constant on a log10 scale (nM): the lower, the stronger. "ND" means that the variant was in the library but no mating with the target was seen in that replicate; the authors take this as a sign of poor binding, and no number exists. Three control strains display no target. For library AAYL51, 21% of the pairings with them gave a signal, with a median of 4.54 and one signal in twenty below 3.26, so weak values seen in few replicates may be background. The control count says in how many pairings with the empty strains this scFv gave a signal, with their mean in brackets.

{"CDR-H1": "GFTFDDYAMH", "CDR-H2": "GISWNSGSTGYYDVVK", "CDR-H3": "VGRGGGYFDY", "log10 Kd (nM) by replicate": "ND ND ND", "signal with controls": "1 of 9 (4.63)"}
{"CDR-H1": "GFTFDDYAMH", "CDR-H2": "GISWNSGSIGYASSVK", "CDR-H3": "VDRGGGYRDY", "log10 Kd (nM) by replicate": "ND ND ND", "signal with controls": "1 of 9 (2.46)"}
{"CDR-H1": "GKTFDDNAMH", "CDR-H2": "GISWNSGSIGYADSVK", "CDR-H3": "VGRHGGYFDY", "log10 Kd (nM) by replicate": "ND ND ND", "signal with controls": "0 of 9"}
{"CDR-H1": "GFTFDDYAMH", "CDR-H2": "GISWNSGMIGYAQSVK", "CDR-H3": "VGRGGGVFDY", "log10 Kd (nM) by replicate": "ND ND ND", "signal with controls": "2 of 9 (2.86)"}
{"CDR-H1": "GFTFDDYAYH", "CDR-H2": "GISWNSGSIGLADSVK", "CDR-H3": "VGRGGGNFDY", "log10 Kd (nM) by replicate": "ND ND ND", "signal with controls": "1 of 9 (3.26)"}
{"CDR-H1": "GFTFDDYAEH", "CDR-H2": "GISWNSGSIGQADSVK", "CDR-H3": "VGRGGGYFDY", "log10 Kd (nM) by replicate": "ND ND ND", "signal with controls": "0 of 9"}
{"CDR-H1": "GFTFDDYAMH", "CDR-H2": "GISWNSGSAGQADSVN", "CDR-H3": "VGRGGGYFDY", "log10 Kd (nM) by replicate": "ND ND ND", "signal with controls": "3 of 9 (4.15)"}
{"CDR-H1": "GFTFDDYAMH", "CDR-H2": "GISWNSGSIGYADSVK", "CDR-H3": "VGSGGGYFDY", "log10 Kd (nM) by replicate": "1.58 1.56 1.14", "signal with controls": "7 of 9 (5.10)"}
{"CDR-H1": "GFTFDKYAMH", "CDR-H2": "GISWNSGSIGYADSMK", "CDR-H3": "VGRGGGYFDH", "log10 Kd (nM) by replicate": "0.67 0.52 0.02", "signal with controls": "0 of 9"}
{"CDR-H1": "GFRFDDYAMH", "CDR-H2": "FISWNSGSIAYADSVK", "CDR-H3": "VGRGGGYFDY", "log10 Kd (nM) by replicate": "ND 5.79 ND", "signal with controls": "4 of 9 (4.76)"}
{"CDR-H1": "GFTFDFYAMH", "CDR-H2": "FISWNSGSIGYADSVK", "CDR-H3": "VGRGGGMFDY", "log10 Kd (nM) by replicate": "ND ND ND", "signal with controls": "0 of 9"}
{"CDR-H1": "FFTFDDYAMH", "CDR-H2": "GNSWNSGSIGYADSVK", "CDR-H3": "VGRGGGYFQY", "log10 Kd (nM) by replicate": "5.01 ND 5.34", "signal with controls": "4 of 9 (5.07)"}
{"CDR-H1": "GFTFDDYAMH", "CDR-H2": "GISANSGSYGYADSVK", "CDR-H3": "VGRGKGYFDY", "log10 Kd (nM) by replicate": "1.84 1.69 1.73", "signal with controls": "2 of 9 (4.91)"}
{"CDR-H1": "GFTFQDYAMH", "CDR-H2": "GISWNSGSIGYADSVK", "CDR-H3": "VGRKGGYFDY", "log10 Kd (nM) by replicate": "ND ND ND", "signal with controls": "2 of 9 (5.27)"}
{"CDR-H1": "GFTFDDYAMH", "CDR-H2": "GISWPSGSIGYADSVK", "CDR-H3": "LGRGGGYFDS", "log10 Kd (nM) by replicate": "5.14 5.88 ND", "signal with controls": "6 of 9 (4.46)"}
{"CDR-H1": "GFTFDDYAMH", "CDR-H2": "GICWNSGSIGYADSVK", "CDR-H3": "TGRGAGYFDY", "log10 Kd (nM) by replicate": "ND ND ND", "signal with controls": "0 of 9"}
{"CDR-H1": "GITFDDYAMH", "CDR-H2": "GISWNSGFIGYADSVK", "CDR-H3": "VGRGGGYFDY", "log10 Kd (nM) by replicate": "ND ND ND", "signal with controls": "2 of 9 (3.87)"}
{"CDR-H1": "GFTFDDYAMH", "CDR-H2": "GISWNSGSIGYADSVK", "CDR-H3": "VGRFGGYFDY", "log10 Kd (nM) by replicate": "2.79 2.68 2.33", "signal with controls": "0 of 9"}
{"CDR-H1": "GFTFDDYAMH", "CDR-H2": "CISWNSGSIGYADSVK", "CDR-H3": "GGRDGGYFDY", "log10 Kd (nM) by replicate": "ND 4.51 ND", "signal with controls": "1 of 9 (3.57)"}
{"CDR-H1": "GFDFDDYAMH", "CDR-H2": "GISWNSGSIGAADSVK", "CDR-H3": "HGRGGGYFDY", "log10 Kd (nM) by replicate": "4.21 ND ND", "signal with controls": "1 of 9 (4.60)"}
{"CDR-H1": "GFTVDDYAMY", "CDR-H2": "GISWNSGSIGYADSVK", "CDR-H3": "VGRGGGYQDY", "log10 Kd (nM) by replicate": "ND ND ND", "signal with controls": "1 of 9 (4.61)"}
{"CDR-H1": "GFTFDDGAEH", "CDR-H2": "GISWNSGSIGYADSVK", "CDR-H3": "VGRGGGYFDY", "log10 Kd (nM) by replicate": "5.15 5.13 5.67", "signal with controls": "6 of 9 (5.05)"}
{"CDR-H1": "GFTDDDYAMH", "CDR-H2": "WIAWNSGSIGYADSVK", "CDR-H3": "VGRGGGYFDY", "log10 Kd (nM) by replicate": "4.54 ND ND", "signal with controls": "3 of 9 (4.08)"}
{"CDR-H1": "GFTFDDYAMH", "CDR-H2": "GISWNSGSIGYQDSMK", "CDR-H3": "VGRGGGYFDY", "log10 Kd (nM) by replicate": "ND ND ND", "signal with controls": "0 of 9"}
{"CDR-H1": "GFTFDDYAMH", "CDR-H2": "GISWNSGAIDYADSVK", "CDR-H3": "VGRGGGYFYY", "log10 Kd (nM) by replicate": "6.25 4.06 ND", "signal with controls": "2 of 9 (4.45)"}
{"CDR-H1": "GFTEDDYAWH", "CDR-H2": "GISWQSGSIGYADSVK", "CDR-H3": "VGRGGGYFDY", "log10 Kd (nM) by replicate": "ND 4.84 4.90", "signal with controls": "2 of 9 (4.06)"}
{"CDR-H1": "GFTFDDDAMH", "CDR-H2": "DISWNSGSIGYADSVK", "CDR-H3": "VGRGGGTFDY", "log10 Kd (nM) by replicate": "ND ND ND", "signal with controls": "0 of 9"}
{"CDR-H1": "DFTFDDYAMH", "CDR-H2": "GISWNSGSIGVADSVK", "CDR-H3": "VGRGGGWFDY", "log10 Kd (nM) by replicate": "ND 5.40 ND", "signal with controls": "2 of 9 (4.96)"}
{"CDR-H1": "GFTFDDYAMH", "CDR-H2": "GIFWNSGSIGYADSVK", "CDR-H3": "VGRGGGYFDY", "log10 Kd (nM) by replicate": "ND ND ND", "signal with controls": "1 of 9 (3.08)"}
{"CDR-H1": "GFTFDDYAMH", "CDR-H2": "GISWNSGSIGLAYTVK", "CDR-H3": "VGRGGGYFDY", "log10 Kd (nM) by replicate": "ND ND ND", "signal with controls": "2 of 9 (2.93)"}
{"CDR-H1": "GFTFDTYAME", "CDR-H2": "GISWNSGSIGYADKVK", "CDR-H3": "VGRGGGYFDY", "log10 Kd (nM) by replicate": "ND ND ND", "signal with controls": "0 of 9"}
{"CDR-H1": "GFTFDDYAMH", "CDR-H2": "GIPWNSGSIGIADSVK", "CDR-H3": "VGRGYGYFDY", "log10 Kd (nM) by replicate": "ND ND ND", "signal with controls": "0 of 9"}

Extract of 2 entries:

{"CDR-H1": "GFTFDDYAMH", "CDR-H2": "GISWNSGAIDYADSVK", "CDR-H3": "VGRGGGYFYY", "log10 Kd (nM) by replicate": "6.25 4.06 ND", "signal with controls": "2 of 9 (4.45)"}
{"CDR-H1": "GFTFQDYAMH", "CDR-H2": "GISWNSGSIGYADSVK", "CDR-H3": "VGRKGGYFDY", "log10 Kd (nM) by replicate": "ND ND ND", "signal with controls": "2 of 9 (5.27)"}